Experimental data: PubChem BioAssay AID1778 (Sanford-Burnham Center for Chemical Genomics, 2009)
This is a selection; strong and weak results do not stand in their true shares. Entries with a potency or affinity are not part of this list. Some salts and complexes are drawn in separate pieces, as the source files them; their charges need not balance. Activity calls are given as the source filed them. Rule as the data show it: active = inhibition above about 50%; inactive = the rest.

Sequences of proteins named here, by UniProt entry; tags and fusion partners are left off.
UniProt P41145, whole entry: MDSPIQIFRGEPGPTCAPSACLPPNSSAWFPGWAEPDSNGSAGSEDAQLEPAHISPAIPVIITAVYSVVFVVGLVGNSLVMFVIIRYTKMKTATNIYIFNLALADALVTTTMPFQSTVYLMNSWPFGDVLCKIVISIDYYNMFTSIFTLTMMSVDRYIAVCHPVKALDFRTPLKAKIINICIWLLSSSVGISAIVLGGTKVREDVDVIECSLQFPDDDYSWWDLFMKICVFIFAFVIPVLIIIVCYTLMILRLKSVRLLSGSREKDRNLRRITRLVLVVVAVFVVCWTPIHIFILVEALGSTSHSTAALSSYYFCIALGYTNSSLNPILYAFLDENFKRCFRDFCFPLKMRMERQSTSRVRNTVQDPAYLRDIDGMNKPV

Biological target: Kappa-type opioid receptor (Homo sapiens) (UniProt P41145)
Assay: kappa opioid receptor blockers – cell-based, luminescence, uHTS (AID 1778)
Conditions: KOR beta-arrestin recruitment, antagonist mode, at 10 µM, hits give high values

Question: `CCN(CC)CCn1c(NCc2ccc(OC)cc2)nc2ccccc21` was tested. Which inhibition did it give?
Answer: The inhibition was inactive: 18%.

Question: With `CCN(CC)CCCOC(=O)C(O)(c1ccccc1)c1ccccc1` as the compound, how does the inhibition read?
Answer: Its inhibition is inactive: -18.2%.

Question: How did the inhibition turn out when `CP(=O)(Nc1ccccn1)Oc1ccc(Cl)cc1` (stereo not drawn) was run?
Answer: The inhibition was inactive: -25.6%.

Question: How did the inhibition turn out when `CCOP(C)(=S)SCC(=O)NC(C)C(=O)O` (stereo not drawn) was run?
Answer: The inhibition was inactive: -31.1%.

Question: How did the inhibition turn out when `CCOC(=O)c1ccc(NP(C)(=O)Oc2ccc(OC)cc2)cc1` (stereo not drawn) was run?
Answer: The inhibition was inactive: -24.6%.

Question: Which inhibition does the source give for `Cc1cc(C)cc(OP(C)(=O)Nc2ccc(SC(F)(F)F)cc2)c1` (stereo not drawn) here?
Answer: The inhibition was inactive: 15.8%.

Question: How did the inhibition turn out when `CP(=O)(NC(=O)Nc1ccccc1)Oc1ccccc1` (stereo not drawn) was run?
Answer: The inhibition was inactive: 3.2%.

Question: How did the inhibition turn out when `CCc1ccc(OP(C)(=O)N2CCN(c3ccc([N+](=O)[O-])cc3)CC2)cc1` (stereo not drawn) was run?
Answer: The inhibition was inactive: 23.3%.

Question: For `CP(=O)(Oc1ccccc1)OC(c1ccccc1)C(F)(F)F` (stereo not drawn), which inhibition is on record?
Answer: Its inhibition is inactive: -3.4%.

Question: With `Cc1cccc(C)c1OP(C)(=O)Nc1ccc(SC(F)(F)F)cc1` (stereo not drawn) as the compound, how does the inhibition read?
Answer: The inhibition was inactive: -4.4%.

Question: For `CP(=O)(Nc1ccc(SC(F)(F)F)cc1)Oc1ccc(Cl)cc1` (stereo not drawn), which inhibition is on record?
Answer: Its inhibition is inactive: 32.9%.

Question: For `COc1ccccc1OP(C)(=O)Nc1ccccc1` (stereo not drawn), which inhibition is on record?
Answer: The inhibition was inactive: -2.3%.

Question: How did the inhibition turn out when `C=CCC1(Nc2ccccc2)CC(C)N(C)CC1C` (stereo not drawn) was run?
Answer: Its inhibition is inactive: -6%.

Question: `CP(=O)(Nc1ccccc1Br)Oc1ccccc1` (stereo not drawn) was tested. Which inhibition did it give?
Answer: The inhibition was inactive: 1.3%.

Question: For `CP(=S)(Nn1cnnc1)Oc1ccccc1` (stereo not drawn), which inhibition is on record?
Answer: The inhibition was inactive: 13.5%.

Question: How did the inhibition turn out when `CCCCOc1ccc(C(=O)NCC2(N3CCCCC3)CCCCC2)cc1OC` was run?
Answer: Its inhibition is inactive: -22.7%.

Question: For `CP(=O)(OC12CC3CC(CC(C3)C1)C2)OC12CC3CC(CC(C3)C1)C2`, which inhibition is on record?
Answer: The inhibition was inactive: 16.2%.

Question: `CCOC(=O)c1ccc(NP(C)(=O)Oc2ccc(Cl)cc2)cc1` (stereo not drawn) was tested. Which inhibition did it give?
Answer: The inhibition was inactive: 9.4%.

Question: How did the inhibition turn out when `CCCCN1CCC(C#N)(Nc2ccccc2)CC1` was run?
Answer: Its inhibition is inactive: 14.7%.

Question: For `CN(C)C(=O)c1c([N+](=O)[O-])cc([N+](=O)[O-])cc1[N+](=O)[O-]`, which inhibition is on record?
Answer: Its inhibition is inactive: -13.7%.

Question: With `CP(=O)(Nc1ccc(Cl)cc1)Oc1ccc(F)cc1` (stereo not drawn) as the compound, how does the inhibition read?
Answer: Its inhibition is inactive: 5%.

Question: For `COc1ccccc1OP(C)(=O)Nc1ccccc1Br` (stereo not drawn), which inhibition is on record?
Answer: The inhibition was inactive: 10%.

Question: Which inhibition does the source give for `CC(C)(C)c1ccc(OP(C)(=O)O)cc1` here?
Answer: Its inhibition is inactive: 4.9%.

Question: `CCc1ccc(OP(C)(=O)Nc2cccnc2)cc1` (stereo not drawn) was tested. Which inhibition did it give?
Answer: Its inhibition is inactive: -23.6%.

Question: For `CP(=O)(Oc1ccccc1)N1CCOC1=O` (stereo not drawn), which inhibition is on record?
Answer: The inhibition was inactive: 2.2%.

Question: With `O=C(OCCCN1CCCC1)C(O)(c1ccccc1)C1CCCCC1` (stereo not drawn) as the compound, how does the inhibition read?
Answer: The inhibition was inactive: -24.7%.

Question: Which inhibition does the source give for `COc1ccccc1OP(C)(=O)Nc1c(C)n(C)n(-c2ccccc2)c1=O` (stereo not drawn) here?
Answer: The inhibition was inactive: 19.3%.

Question: `COc1ccc(OP(C)(=O)Nc2ccc(Br)cc2)cc1` (stereo not drawn) was tested. Which inhibition did it give?
Answer: Its inhibition is inactive: 9.2%.

Question: `CCN(CC)CC(O)COC(=O)C(O)(c1ccccc1)C1CCCCC1` (stereo not drawn) was tested. Which inhibition did it give?
Answer: Its inhibition is inactive: -8.8%.

Question: `CCc1ccc(OP(C)(=O)O)cc1` was tested. Which inhibition did it give?
Answer: Its inhibition is inactive: 2.7%.

Question: Which inhibition does the source give for `COc1ccccc1OP(C)(=O)Nc1ccc(C)cc1C` (stereo not drawn) here?
Answer: The inhibition was inactive: 9.2%.

Question: `CP(=O)(Nc1ccccn1)Oc1ccccc1` (stereo not drawn) was tested. Which inhibition did it give?
Answer: The inhibition was inactive: 10.3%.

Question: `Cc1c(NP(C)(=O)Oc2ccc(C(C)C)cc2)c(=O)n(-c2ccccc2)n1C` (stereo not drawn) was tested. Which inhibition did it give?
Answer: Its inhibition is inactive: -12.2%.

Question: With `CN(C)CCOC(=O)C(O)(c1ccccc1)C1CCCC1` (stereo not drawn) as the compound, how does the inhibition read?
Answer: The inhibition was inactive: -8.3%.

Question: With `COc1ccc(OP(C)(=O)Nc2ccccn2)cc1` (stereo not drawn) as the compound, how does the inhibition read?
Answer: The inhibition was inactive: -6.7%.

Question: For `COc1ccccc1OP(C)(=O)Nc1ccc(Br)cc1` (stereo not drawn), which inhibition is on record?
Answer: The inhibition was inactive: 6.9%.

Question: With `CP(=O)(Nc1ccc(Cl)cc1Cl)Oc1ccccc1` (stereo not drawn) as the compound, how does the inhibition read?
Answer: Its inhibition is inactive: 22%.

Question: With `CP(=O)(OCCOc1ccccc1)OCCOc1ccccc1` as the compound, how does the inhibition read?
Answer: Its inhibition is inactive: 9.6%.

Question: `Cc1nc2ccc3ccccc3c2o1.O=[N+]([O-])c1cc([N+](=O)[O-])c(O)c([N+](=O)[O-])c1` was tested. Which inhibition did it give?
Answer: Its inhibition is inactive: -8.9%.

Question: How did the inhibition turn out when `COc1ccc(OP(C)(=O)Nc2ccccc2Br)cc1` (stereo not drawn) was run?
Answer: The inhibition was inactive: -12.1%.

Question: With `COc1ccccc1OP(C)(=O)Nc1ccc(C)c(C)c1` (stereo not drawn) as the compound, how does the inhibition read?
Answer: Its inhibition is inactive: -18.9%.

Question: `CCCCCOc1ccc(NP(C)(=O)Oc2ccc(Cl)cc2Cl)cc1` (stereo not drawn) was tested. Which inhibition did it give?
Answer: Its inhibition is inactive: -8.5%.

Question: With `O=[N+]([O-])c1cc([N+](=O)[O-])c(OC2CCCCC2O)c([N+](=O)[O-])c1` (stereo not drawn) as the compound, how does the inhibition read?
Answer: The inhibition was inactive: 9.6%.

Question: For `CP(=O)(Nc1ccccc1)Oc1ccc(F)cc1` (stereo not drawn), which inhibition is on record?
Answer: The inhibition was inactive: -18%.

Question: For `CCN(CC)CCCOC(=O)C(O)(c1ccccc1)C1CCCCC1` (stereo not drawn), which inhibition is on record?
Answer: Its inhibition is inactive: -17.4%.

Question: With `COc1ccc(OP(C)(=O)Nc2ccc(SC(F)(F)F)cc2)cc1` (stereo not drawn) as the compound, how does the inhibition read?
Answer: The inhibition was inactive: -24.5%.

Question: For `CCOC(=O)c1ccc(NP(C)(=O)Oc2ccc(F)cc2)cc1` (stereo not drawn), which inhibition is on record?
Answer: Its inhibition is inactive: -6.4%.

Question: For `COc1ccc2c(c1O)-c1c(O)c(OC)cc3c1[C@H](C2)[N+](C)(C)CC3.O=[N+]([O-])c1cc([N+](=O)[O-])c([O-])c([N+](=O)[O-])c1[O-]`, which inhibition is on record?
Answer: The inhibition was inactive: 19.7%.

Question: For `O=C(OCCN1CCN(CCOCc2ccccc2)CC1)C(O)(c1ccccc1)c1ccccc1`, which inhibition is on record?
Answer: Its inhibition is inactive: -31.5%.

Question: For `O=C(OC1CN2CCC1CC2)c1ccc([N+](=O)[O-])cc1` (stereo not drawn), which inhibition is on record?
Answer: Its inhibition is inactive: -1.3%.

Question: With `CC(C)c1ccc(OP(C)(=O)Nc2ccc(SC(F)(F)F)cc2)cc1` (stereo not drawn) as the compound, how does the inhibition read?
Answer: Its inhibition is inactive: 8.9%.

Question: How did the inhibition turn out when `CP(=O)(Nc1ccccc1F)Oc1ccccc1` (stereo not drawn) was run?
Answer: The inhibition was inactive: -4.9%.

Question: How did the inhibition turn out when `Cc1ccccc1NP(C)(=O)Nc1ccccc1C` was run?
Answer: The inhibition was inactive: 27.6%.

Question: `CP(=O)(Nc1ccc2c(c1)OCCO2)Oc1ccccc1` (stereo not drawn) was tested. Which inhibition did it give?
Answer: The inhibition was inactive: 5.6%.

Question: How did the inhibition turn out when `CCOP(C)(=S)SCC(=O)NC(C)(CC)C(=O)O` (stereo not drawn) was run?
Answer: Its inhibition is inactive: 21.2%.

Question: For `CP(=O)(Nc1ccc(SC(F)(F)F)cc1)Oc1ccc(F)cc1` (stereo not drawn), which inhibition is on record?
Answer: The inhibition was inactive: -8.2%.

Question: `Cc1cc(-c2cccc3ccccc23)c(C)cn1.O=[N+]([O-])c1cc([N+](=O)[O-])c(O)c([N+](=O)[O-])c1` was tested. Which inhibition did it give?
Answer: Its inhibition is inactive: -27.4%.

Question: How did the inhibition turn out when `O=[N+]([O-])c1cc([N+](=O)[O-])c(NCC2CCS(=O)(=O)C2)c([N+](=O)[O-])c1` (stereo not drawn) was run?
Answer: Its inhibition is inactive: 48.2%.

Question: How did the inhibition turn out when `O=[N+]([O-])c1ccc(OP2(=O)COCCO2)cc1` (stereo not drawn) was run?
Answer: The inhibition was inactive: 19.8%.

Question: For `COc1ccc(NP(C)(=O)Oc2ccccc2OC)cc1` (stereo not drawn), which inhibition is on record?
Answer: The inhibition was inactive: 10.2%.

Question: `CN(C)CCOC(=O)C(O)(c1ccccc1)C1CCCCC1` (stereo not drawn) was tested. Which inhibition did it give?
Answer: The inhibition was inactive: 18.2%.

Question: How did the inhibition turn out when `CN(C)C1(CNC(=O)c2ccc(Cl)c(S(N)(=O)=O)c2)CCCCC1` was run?
Answer: Its inhibition is inactive: 7.5%.

Question: For `COc1ccc(OP(C)(=O)Nc2cccc(Br)c2)cc1` (stereo not drawn), which inhibition is on record?
Answer: Its inhibition is inactive: 14.6%.
